The values that follow are results of earlier work, collected in US20230100844A1, “IBOGAINE COMBINATION TREATMENT” (ATAI Life Sciences AG, priority 2021, published 2023).

Chains of the proteins cited; added tags and fusions are not shown.
UniProt P10635, whole entry: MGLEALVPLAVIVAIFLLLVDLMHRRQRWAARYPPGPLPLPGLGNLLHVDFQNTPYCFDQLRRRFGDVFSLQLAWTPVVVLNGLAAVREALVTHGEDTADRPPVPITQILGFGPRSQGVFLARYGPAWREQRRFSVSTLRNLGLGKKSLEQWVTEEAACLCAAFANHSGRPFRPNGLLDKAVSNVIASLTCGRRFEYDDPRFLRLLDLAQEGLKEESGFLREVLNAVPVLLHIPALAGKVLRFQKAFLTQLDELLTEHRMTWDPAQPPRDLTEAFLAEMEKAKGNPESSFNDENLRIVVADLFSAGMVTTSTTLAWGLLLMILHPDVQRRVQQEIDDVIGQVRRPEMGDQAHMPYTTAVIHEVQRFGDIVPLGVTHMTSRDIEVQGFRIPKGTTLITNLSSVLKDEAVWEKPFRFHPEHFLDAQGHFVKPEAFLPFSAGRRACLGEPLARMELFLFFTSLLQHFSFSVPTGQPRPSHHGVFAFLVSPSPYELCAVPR

In the data set the target is T1, CYP2D6 (Homo sapiens, UniProt P10635).
T1 construct: host or cells: human subjects (endogenous enzyme of gut wall and liver)
The following applies: humans; cited from earlier work.

Consider `CNCCC(Oc1ccc(C(F)(F)F)cc1)c1ccccc1` (stereo not shown) [Fluoxetine, fluoxetine], for which the “in vivo CYP2D6 inhibition” value is recorded as “shown to inhibit CYP2D6 in humans after single administration”.
